The text below walks through data of ChEMBL document CHEMBL5528080, “Discovery of RORγ Allosteric Fluorescent Probes and Their Application: Fluorescence Polarization, Screening, and Bioimaging” (J Med Chem, 2024).

By UniProt entry, the sequences of proteins in these tests, tags left out. Where a name states a change or a piece, a line headed by the entry shows the natural chain unless it says otherwise.
UniProt P51449: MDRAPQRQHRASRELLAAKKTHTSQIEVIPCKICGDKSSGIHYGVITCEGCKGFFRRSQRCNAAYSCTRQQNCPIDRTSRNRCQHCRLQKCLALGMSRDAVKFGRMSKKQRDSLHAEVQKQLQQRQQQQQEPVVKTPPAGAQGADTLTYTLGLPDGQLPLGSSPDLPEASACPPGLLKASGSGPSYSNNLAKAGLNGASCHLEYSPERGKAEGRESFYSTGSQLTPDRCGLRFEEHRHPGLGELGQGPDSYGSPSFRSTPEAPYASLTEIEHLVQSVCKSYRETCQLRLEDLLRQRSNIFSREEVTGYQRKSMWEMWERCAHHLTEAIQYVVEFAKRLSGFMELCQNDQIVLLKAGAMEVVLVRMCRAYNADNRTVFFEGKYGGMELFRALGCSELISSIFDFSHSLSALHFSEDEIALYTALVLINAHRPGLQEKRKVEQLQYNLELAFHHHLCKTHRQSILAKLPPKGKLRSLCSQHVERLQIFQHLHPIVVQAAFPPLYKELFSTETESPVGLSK

The target in one experiment is T1, Nuclear receptor ROR-gamma (Homo sapiens, UniProt P51449). The following applies: Sf9.
As for `NCCCCCCCNC(=O)c1ccc2c(-c3ccc(C(=O)O)cc3)nn(C(=O)c3c(Cl)cccc3C(F)(F)F)c2c1`, the ΔTm was determined as 1.4 °C.

On to `NCCOCCOCCNC(=O)c1ccc2c(-c3ccc(C(=O)O)cc3)nn(C(=O)c3c(Cl)cccc3C(F)(F)F)c2c1`, for which the ΔTm stood at 3.3 °C.

As for `NCCOCCOCCOCCNC(=O)c1ccc2c(-c3ccc(C(=O)O)cc3)nn(C(=O)c3c(Cl)cccc3C(F)(F)F)c2c1`, the ΔTm stood at 1.1 °C.

For `NCCCCCCCCNc1ccc2c(-c3ccc(C(=O)O)cc3)nn(C(=O)c3c(Cl)cccc3C(F)(F)F)c2c1`, the ΔTm came to 0.8 °C.

As to `NCCCCCCC#Cc1ccc2c(-c3ccc(C(=O)O)cc3)nn(C(=O)c3c(Cl)cccc3C(F)(F)F)c2c1`, the ΔTm amounted to 0.7 °C.

`NCCCCCCNc1ccc2c(-c3ccc(C(=O)O)cc3)nn(C(=O)c3c(Cl)cccc3C(F)(F)F)c2c1`: the ΔTm worked out at 0.5 °C.

On to `NCCCCCCNC(=O)c1ccc2c(-c3ccc(C(=O)O)cc3)nn(C(=O)c3c(Cl)cccc3C(F)(F)F)c2c1`, for which the ΔTm came out at 1.5 °C.

On to `NCCOCCNC(=O)c1ccc2c(-c3ccc(C(=O)O)cc3)nn(C(=O)c3c(Cl)cccc3C(F)(F)F)c2c1`, for which the thermal shift (ΔTm) came out at 0.05 °C.

With `NCCC(=O)NCCCCCCNC(=O)c1ccc2c(-c3ccc(C(=O)O)cc3)nn(C(=O)c3c(Cl)cccc3C(F)(F)F)c2c1`, the ΔTm was 2.4 °C.

Regarding `NCCCCCCCCNC(=O)c1ccc2c(-c3ccc(C(=O)O)cc3)nn(C(=O)c3c(Cl)cccc3C(F)(F)F)c2c1`, the ΔTm is 1.9 °C.

As for `NCCCCCCCNc1ccc2c(-c3ccc(C(=O)O)cc3)nn(C(=O)c3c(Cl)cccc3C(F)(F)F)c2c1`, the thermal shift (ΔTm) was 0.6 °C.

In another experiment the target is T1, Nuclear receptor ROR-gamma. The note with it: Sf9, dose 0.5 mM, time 30.0 min.
In the case of `COc1cc(-c2nc3ccccn3c2/N=C/c2c[nH]nc2-c2ccccc2)ccc1O`, the inhibition was 29.1%.

The target in a further experiment is T1, Nuclear receptor ROR-gamma. The note with it: Sf9, filed as negative allosteric modulator, dose 1.0 mM, time 30.0 min.
In the case of `COc1cc(-c2nc3ccccn3c2/N=C/c2c[nH]nc2-c2ccccc2)ccc1O`, the inhibition was found to be 63.1%.
